Two compounds from patent US20260382588A1, “COMPOUNDS CONTAINING A HYDROXYPHENYL MOIETY AND THEIR USE” (published 2026) can be followed below.

One assay deals with Sparc mRNA. Nature of the assay: RIDD: Sparc mRNA decay in U87 cells. Particulars: for effect on Sparc mRNA in cells overexpressing dominant negative IRE1: DN IRE1 cells, data not shown; for tunicamycin-induced degradation of Sparc mRNA: U87 cells, actinomycin D and tunicamycin, 4 hours (FIG. 2C). The procedure:
(§1) FIG. 2: Compound 33 (Z4) and compound 28 (Z4P) inhibit IRE1 activity in cellular models. (A) Protein levels of IRE1 and phospho-IRE1 in U87 cells treated with compound 33 (Z4) and compound 28 (Z4P) over 24 hours. Fold change of protein expression between IRE1 and phospho-IRE1 is represented in bar chart form normalized to untreated U87 cells. (B) Quantification of XBP1s mRNA levels upon treatment with 1 μg/mL Tunicamycin over 24 hrs in the presence or absence of pre-treatments with 25 μM compound 33 (Z4) or compound 28 (Z4P) normalized to untreated U87 cells. (C) Quantification of SPARC mRNA levels in the presence of 5 μg/mL Actinomycin D and presence or absence of 10 μg/mL Tunicamycin and 9 μg/mL compound 33 (Z4) or compound 28 (Z4P) over 4 hours in U87 cells. (D) Cell viability of U87 cells as function of TMZ concentration, in the presence of increasing concentrations of compound 33 (Z4) and compound 28 (Z4P). The non-linear regression was calculated using the GraphPad Prism software. Symbols and error bars represent mean values±SD.
Cell culture and treatments—U87MG (U87; ATCC) cells were authenticated as recommended by AACR (http://aacrjoumals.org/content/cell-line-authentication-information) and regularly tested for the absence of mycoplasma using MycoAlert® (Lonza, Basel, Switzerland) or MycoFluor (Invitrogen, Carlsbad, CA, USA). U87 were grown in DMEM Glutamax (Invitrogen, Carlsbad, CA, USA) supplemented with 10% FBS. GB immortalized U251 and primary RADH87 (T. Avril et al., Brain Pathol., 2012, 22, 159-174) cells were grown in DMEM supplemented with 10% FBS in a 5% C02 humidified atmosphere at 37 °C. GB cell lines were modified for IRE1 activity by overexpressing dominant negative (DN) forms of IRE1 that lack the RNase domain (IRE1.NCK or IRE1 Q780stop) as previously described (S. Lhomond et al., EMBO Molecular Medicine, 2018, 10, e7929; J. Obacz et al., bioRxiv, 2020, 533018). For XBP1s induction experiments, tunicamycin was used at 1 μg/mL for the indicated periods of time. For inhibitor cell toxicity assays cells were plated in 96 well plates at 5000 cells per well and treated with 0, 5, 10, 25, 50, 100, 250, 500, 1000 and 2500 μM concentrations of each inhibitor. After 6 days of incubation, WST1 reagent (Roche) was added to each well and post 2-hour incubation the plate was read using a Tecan 200 colorimeter. […] After 6 days of incubation, WST1 reagent (Roche) was added to each well and post 2-hour incubation the plate was read using a Tecan 200 colorimeter.
Quantitative real-time PCR—Total RNA was prepared using TRIzol reagent (Invitrogen, Carlsbad, CA, USA). […] Each sample was extract individually for RNA and performed the quantification of mRNA levels by qPCR for several targets. […]

The test system of assay [1] is IRE1 phosphorylation in U87 cells. The assay can be described thus: IRE1 phosphorylation in U87 cells (western blot). The settings on record: treatment over 24 hours (FIG. 2A). The procedure:
as §1, with “(D) Cell viability of U87 cells as function of TMZ concentration, in the presence of increasing concentrations of compound 33 (Z4) and compound 28 (Z4P).” left out, “Symbols and error bars represent mean values±SD.” left out
Cell culture and treatments—U87MG (U87; ATCC) cells were authenticated as recommended by AACR (http://aacrjoumals.org/content/cell-line-authentication-information) and regularly tested for the absence of mycoplasma using MycoAlert® (Lonza, Basel, Switzerland) or MycoFluor (Invitrogen, Carlsbad, CA, USA). […] After 6 days of incubation, WST1 reagent (Roche) was added to each well and post 2-hour incubation the plate was read using a Tecan 200 colorimeter. […]

Take `Cc1ccc(C)c(NC(=O)NC(C)CCc2ccc(O)cc2)c1` (racemic): in the assay on Sparc mRNA, the “effect on Sparc mRNA in cells overexpressing dominant negative IRE1” value is “no effect on Sparc mRNA” and the “tunicamycin-induced degradation of Sparc mRNA” value was “blocked tunicamycin-induced degradation of Sparc mRNA”. Also, the “reduction of IRE1 phosphorylation” value in assay [1] was “about 25%”.

With `Cc1ccc(C(N)=O)cc1NC(=O)NC(C)CCc1ccc(O)cc1` (racemic), in the assay with Sparc mRNA, the “effect on Sparc mRNA in cells overexpressing dominant negative IRE1” value was “no effect on Sparc mRNA” and the “tunicamycin-induced degradation of Sparc mRNA” value is recorded as “blocked tunicamycin-induced degradation of Sparc mRNA”. Also, the “reduction of IRE1 phosphorylation” value in assay [1] is “about 25%”.
